Test: Tested for activity against 5-hydroxytryptamine 1A receptor from bovine hippocampus

Compound: CCCN1CC[C@H]2c3c(O)cccc3CC[C@H]21
- Ki: 3 nM

Source: ChEMBL document CHEMBL1128296, “Quantitative binding site model generation: compass applied to multiple chemotypes targeting the 5-HT1A receptor” (J Med Chem, 1995)
